This note sets out measurements from PubChem BioAssay AID1259251 (The Scripps Research Institute Molecular Screening Center, 2017).

Protein sequences, listed by entry. Tags and fused reporters are not part of them.
UniProt O75385, whole entry: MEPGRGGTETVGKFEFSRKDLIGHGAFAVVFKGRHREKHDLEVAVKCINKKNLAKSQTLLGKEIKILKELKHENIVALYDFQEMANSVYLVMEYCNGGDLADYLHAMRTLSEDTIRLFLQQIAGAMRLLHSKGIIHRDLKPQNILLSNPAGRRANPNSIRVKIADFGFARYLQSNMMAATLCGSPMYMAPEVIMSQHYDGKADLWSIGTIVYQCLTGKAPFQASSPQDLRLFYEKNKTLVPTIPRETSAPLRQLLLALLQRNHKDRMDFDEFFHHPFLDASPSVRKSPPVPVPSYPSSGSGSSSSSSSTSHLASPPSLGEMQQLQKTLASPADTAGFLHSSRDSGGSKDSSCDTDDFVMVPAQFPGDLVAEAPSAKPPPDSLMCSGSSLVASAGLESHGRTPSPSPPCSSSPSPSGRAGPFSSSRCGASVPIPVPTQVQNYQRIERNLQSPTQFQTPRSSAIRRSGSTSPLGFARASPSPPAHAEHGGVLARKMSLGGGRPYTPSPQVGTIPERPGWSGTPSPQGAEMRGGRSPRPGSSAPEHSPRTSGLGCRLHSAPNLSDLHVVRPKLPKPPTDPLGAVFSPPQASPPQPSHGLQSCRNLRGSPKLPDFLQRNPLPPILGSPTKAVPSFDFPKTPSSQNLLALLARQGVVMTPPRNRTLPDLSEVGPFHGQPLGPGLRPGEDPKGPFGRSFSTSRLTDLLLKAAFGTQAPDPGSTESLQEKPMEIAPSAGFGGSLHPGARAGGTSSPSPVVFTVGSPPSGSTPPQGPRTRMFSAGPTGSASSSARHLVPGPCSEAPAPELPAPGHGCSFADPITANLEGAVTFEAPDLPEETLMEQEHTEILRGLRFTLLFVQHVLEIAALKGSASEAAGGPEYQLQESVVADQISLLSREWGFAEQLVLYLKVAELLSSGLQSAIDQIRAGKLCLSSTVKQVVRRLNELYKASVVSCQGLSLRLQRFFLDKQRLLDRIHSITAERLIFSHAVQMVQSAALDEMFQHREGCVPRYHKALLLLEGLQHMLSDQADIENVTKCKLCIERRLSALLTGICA

Only a part is listed here, and it is no random draw. Activity calls are given as the source filed them. No stated cut-off is given here; in the data, active means inhibition above about 43%; inactive means the rest.

The experiment has as its target Serine/threonine-protein kinase ULK1 (Homo sapiens) (UniProt O75385). The experiment in a line: ULK1 kinase inhibitors, primary screen, biochemical, AlphaScreen (AID 1259251).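 Further: 0% = median of compound wells and 100% = no enzyme.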 Particulars: AlphaScreen Atg13 phosphorylation by ULK1, luminescence; at 5.96 µM; hits give high values.
Take `CCOC(=O)N1CCC(=O)CC1`: the inhibition is inactive: -17.9%.
